The series in a line: Intrinsic clearance in Beagle dog liver microsomes preincubated followed by NADPH addition and measured up to 45 mins by LC-MS/MS analysis. The format is ADME, Canis lupus familiaris, Microsome. On the technique in general: Microsomes from liver hold many membrane-bound enzymes, among them those of drug oxidation.

The compound `NCc1ccc2c(c1)nc(CN1C(=O)C3(CC3)c3ccc(F)cc31)n2CCCC(F)(F)F` [SISUNATOVIR] came in with an intrinsic clearance of 2.6 µL/min.

The values above are taken from ChEMBL document CHEMBL4825662 (J Med Chem, 2021).
